Patent US9259482B2, “Conjugates of polymers having a therapeutically active agent and an angiogenesis targeting moiety attached thereto and uses thereof in the treatment of angiogenesis related diseases” (Ramot at Tel-Aviv University Ltd., priority 2008, dated 2016)

Experiment: Hydrodynamic diameter by Nanoparticle Tracking Analysis
Type: physicochemical
Conditions: PBS
Description: The mean hydrodynamic diameter of the PGA conjugates was evaluated using a real time particle analyzer (NanoSight LM20™) containing a solid-state, single mode laser diode (<20 mW, 655 nm) configured to launch a finely focused beam through a 500 μl sample chamber. The tested conjugate was dissolved in PBS to a final concentrations of 9.9 mg/ml. The samples were then injected into the chamber by syringe and allowed to equilibrate to a unit temperature (23° C.) for 30 seconds. The particles dynamics were visualized at 30 frames per second (fps) for 60 seconds at 640×480 resolution by the device CCD camera. The paths the particles take under Brownian motion over time were analyzed using Nanoparticle Tracking Analysis (NTA) software. […] Each sample was measured three times in triplicates, and the results represent the mean diameter.

PGA-Copolymer -E-c(RGDfk)2-Paclitaxel [PGA-PTX-E-[c(RGDfk)2]]
mean hydrodynamic diameter (conjugate with PTX loading of 2.6 mol % and -E-c(RGDfk)2 loading of 5 mol %, FIG. 9B): about 40 nm | mean hydrodynamic diameter (conjugate with PTX loading of 5.5 mol % and -E-c(RGDfk)2 loading of 3.9 mol %, FIG. 9A): about 30 nm
